Measurements from US20220002432A1 (VIRTUOSO BINCO, published 2022).

Sequences of proteins named here, by UniProt entry; tags and fusion partners are left off. A line that says so, or that is headed by a name, gives the form on record, which may keep a tag or linker.
UniProt Q5VAN0, other isoform, or with tags, fused parts or gaps: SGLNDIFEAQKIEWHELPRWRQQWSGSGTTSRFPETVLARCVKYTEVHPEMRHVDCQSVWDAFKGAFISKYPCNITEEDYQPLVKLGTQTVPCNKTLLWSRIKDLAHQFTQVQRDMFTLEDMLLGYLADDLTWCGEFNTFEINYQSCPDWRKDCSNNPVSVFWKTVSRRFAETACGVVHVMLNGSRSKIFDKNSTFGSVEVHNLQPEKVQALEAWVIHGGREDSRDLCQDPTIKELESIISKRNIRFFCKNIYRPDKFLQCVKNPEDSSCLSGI

Key:
recombinant human CD38 = recombinant human CD38 (human, UniProt P28907); experiment: SPR (Biacore 8K), antibody captured, antigen injected;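 further: antibodies held on a CM5 chip by anti-human IgG Fc, antigen in 3-fold dilution series, 1 min association, 10 min dissociation at 25 °C, 1:1 Langmuir kinetic fit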
cynomolgus CD38 ECD = molecular target: T1, cynomolgus CD38 ECD (cynomolgus, UniProt Q5VAN0, biotinylated on the AviTag during preparation); experiment: as above
T1 construct: also called Cyno-CD38; Avi-Cyno CD38 ECD

B1: Anti-CD38 G1F4 (antibody, human IgG1, kappa, V domains shown)
VH: [about 100 residues left out]RGTYGYSFPTGFDYWGQGTLVTVSS
VL: DIQMTQSPSSLSASVGDRVTITCRASQDVNTAVAWYQQKPGKAPKLLIYSASFLYSGVPSRFSGSRSGTDFTLTISSLQPEDFATYYCQQHYTTPPTFGQGTKVEIKR
notes: Human IgG1 with the common anti-HER2 light chain; From the phage/yeast libraries; also called G1F4_VH; G1F4_VL
B1 was tested, and the Kd (recombinant human CD38) was 35.5 nM, the koff (recombinant human CD38) was 0.0183 s⁻¹ and the kon (recombinant human CD38) was 515000 M⁻¹ s⁻¹. For the same binder, the Kd (cynomolgus CD38 ECD) was 26.5 nM, the koff (cynomolgus CD38 ECD) was 0.0549 s⁻¹ and the kon (cynomolgus CD38 ECD) was 2.07e+06 M⁻¹ s⁻¹.
